Laboratory results published in US8383697B2 (priority 2009, dated 2013).

Experiments:
[1] = Thermal stability of initiators by dynamic DSC; conditions: dynamic DSC up to 300° C.
rats = conditions: cited from earlier work
[2] = at 22° C.; cited from earlier work

## CCC(C)(OO)OOC(C)(CC)OO (stereo not drawn)
[1]
  Thermal stability (in words): most thermally stable
rats
  Rat Oral LD50: 484 mg/kg
[2]
  Water Solubility: 0.1-0.5 g/100 mL at 22 °C

Some compounds may have been tested in ways that are not shown here.
